Earlier results on 1 compound are cited in patent US20240165107A1, “Long Acting Injectable Compositions of Cariprazine or its Pharmaceutically Acceptable Salts” (Cipla Limited, priority 2021, published 2024).

The chains behind the UniProt entries cited, without tags or fusion partners.
UniProt P14416, whole entry: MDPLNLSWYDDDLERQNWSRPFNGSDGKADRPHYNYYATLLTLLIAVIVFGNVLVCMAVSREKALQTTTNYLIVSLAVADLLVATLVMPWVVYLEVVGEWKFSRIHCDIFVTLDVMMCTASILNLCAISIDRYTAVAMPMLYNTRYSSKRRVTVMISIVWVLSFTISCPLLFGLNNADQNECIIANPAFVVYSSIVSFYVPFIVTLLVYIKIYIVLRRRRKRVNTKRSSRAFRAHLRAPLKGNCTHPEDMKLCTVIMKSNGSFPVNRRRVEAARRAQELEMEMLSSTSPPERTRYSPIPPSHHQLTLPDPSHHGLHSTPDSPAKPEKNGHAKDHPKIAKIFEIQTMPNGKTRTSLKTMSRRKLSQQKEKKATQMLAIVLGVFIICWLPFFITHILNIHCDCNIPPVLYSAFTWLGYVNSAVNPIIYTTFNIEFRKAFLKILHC

This series addresses dopamine D2 receptors (Homo sapiens, UniProt P14416). The settings on record: partial agonist.

On to `CN(C)C(=O)N[C@H]1CC[C@H](CCN2CCN(c3cccc(Cl)c3Cl)CC2)CC1` [Cariprazine, trans-N-{4-[2-[4-(2,3-dichlorophenyl)piperazine-1-yl]ethyl]cyclohexyl}-N′,N′-dimethylurea], for which the binding affinity entry is reported as “high binding affinity”.
